In patent US9340549B2, “Oxazolidinone compounds and derivatives thereof” (priority 2012, dated 2016):
Where two headings read alike, the source gives them in different places. Values belong to the compound of their own block, whether it stands above or below them.

The chains behind the UniProt entries cited, without tags or fusion partners. Residues count along the entry.
UniProt O95271, 1091-1325: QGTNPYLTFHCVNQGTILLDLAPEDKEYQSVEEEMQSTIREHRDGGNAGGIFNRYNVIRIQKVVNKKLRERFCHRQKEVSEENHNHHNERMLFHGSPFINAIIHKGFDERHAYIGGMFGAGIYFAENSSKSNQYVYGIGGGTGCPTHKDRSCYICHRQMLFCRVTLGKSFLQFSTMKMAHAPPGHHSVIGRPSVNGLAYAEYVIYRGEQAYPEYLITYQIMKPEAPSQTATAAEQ
UniProt Q9H2K2, 946-1162: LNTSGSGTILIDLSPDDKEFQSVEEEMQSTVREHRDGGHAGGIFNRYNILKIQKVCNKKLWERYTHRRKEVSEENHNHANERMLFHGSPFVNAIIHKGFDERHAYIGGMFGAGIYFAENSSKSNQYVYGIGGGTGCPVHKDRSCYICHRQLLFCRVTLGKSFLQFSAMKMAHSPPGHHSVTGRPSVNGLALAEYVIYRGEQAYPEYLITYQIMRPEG

Key:
[1] = test system: total β-catenin in SW480 colorectal cells; experiment: cells; format: cell-based; details: Homo sapiens, SW480, read-out: SW480-Total β-Catenin IC50 IP
[2] = target: 6×HIS-tankyrase 1 (1091-1325) (Homo sapiens (Human), UniProt O95271); experiment: biochemical; details: 400 nM NAD, 60 minutes at room temperature, read-out: TNKS1 IP IC50
[3] = target: 6×HIS-tankyrase 2 (946-1162) (Homo sapiens (Human), UniProt Q9H2K2); experiment: Tankyrase 2 biochemical assay (AlphaLisa, anti-PAR detection); details: 4 nM enzyme, 250 nM NAD; read-out: TNKS2 IP IC50

IC50 [1]: 180 nM
Structure (SMILES): CC1(C)OC(=O)N([C@H]2CC[C@H](NC(=O)c3ccnc4cc(F)cnc34)CC2)[C@H]1c1ccccc1 [Example 59, N-((1S,4r)-4-((S)-5,5-dimethyl-2-oxo-4-phenyloxazolidin-3-yl)cyclohexyl)-7-fluoro-1,5-naphthyridine-4-carboxamide]

Structure (SMILES): CC1(C)OC(=O)N([C@H]2CC[C@H](c3cnc(N)c(-c4ncccn4)c3)CC2)[C@H]1c1ccccc1 [Example 74, (S)-3-((1r,4S)-4-(6-amino-5-(pyrimidin-2-yl)pyridin-3-yl)cyclohexyl)-5,5-dimethyl-4-phenyloxazolidin-2-one]
IC50 ([2]; […] enzyme): 1.47 nM

Structure (SMILES): CC1(C)OC(=O)N([C@H]2CC[C@@H](c3cnc(N)c(-c4ncccn4)c3)CC2)[C@H]1c1ccccc1 (racemic) [Example 72, 3-((1s,4s)-4-(6-amino-5-(pyrimidin-2-yl)pyridin-3-yl)cyclohexyl)-5,5-dimethyl-4-phenyloxazolidin-2-one]
IC50 ([2]; 0.25 nM enzyme): 370 nM

Structure (SMILES): CC1(C)OC(=O)N([C@H]2CC[C@H](n3c(=O)[nH]c4cc(Cl)ccc43)CC2)[C@H]1c1ccccc1 [Example 29, (S)-3-((1r,4S)-4-(5-chloro-2-oxo-2,3-dihydro-1H-benzo[d]imidazol-1-yl)cyclohexyl)-5,5-dimethyl-4-phenyloxazolidin-2-one]
IC50 [3]: 4.98 nM

IC50 ([2]; […] enzyme): 174 nM
Structure (SMILES): CC1(C)OC(=O)N([C@H]2CC[C@H](c3cnc(N)c(-c4ncccn4)c3)CC2)[C@@H]1c1ccccc1 [Example 75, (R)-3-((1r,4R)-4-(6-amino-5-(pyrimidin-2-yl)pyridin-3-yl)cyclohexyl)-5,5-dimethyl-4-phenyloxazolidin-2-one]
